Source: patent US20020040062A1, “Protein kinase C activators and their use in decreasing expression of cell antigens” (The Trustees of Columbia University, priority 1993, published 2002)

How the values were obtained:
Format in all cases: cell-based, human
[1] = test system: HLA Class II-DRβ antigen mRNA; experiment: Northern blotting, steady-state HLA Class II-DRβ mRNA in T47D cells; conditions: 72 hr, 500 units/ml IFN-α or IFN-β, 50 units/ml IFN-γ, 0.1 μg/ml TPA, MEZ or ADMB, densitometry
Experimental: (§1) FIG. 3: Effect of interferon, ADMB, TPA and MEZ, alone and in combination with H-7, on steady-state mRNA levels of HLA Class I antigens, HLA Class II-DRβ antigen, c-erbB-2, ICAM-1 and GAPDH in T47D human breast carcinoma cells. T47D cells were grown for 72 hr in the absence (control) or presence of 500 units/ml of IFN-α or IFN-β, 50 units/ml of IFN-γ, 0.1 μg/ml of TPA, MEZ or ADMB. Cultures were also grown in the presence of 0.1 μg/ml of H-7 for 72 hr with and without the additional compounds indicated above. […]
(§2) Steady-state levels of HLA Class I, HLA Class II-DRβ, c-erbB-2 and ICAM-I mRNA in control and treated T47D cells were determined by Northern blotting analysis of total cytoplasmic RNA probed with appropriate ^32P-labeled gene probes as previously described. […] Radioautograms were analyzed by densitometer to determine fold-change in mRNA expression as a result of treatment with the different antigenic modulating agents, with or without cocultivation with H-7.

[2] = test system: HLA Class II antigens; experiment: FACS analysis of HLA Class II antigen surface expression in T47D cells
From the text: IgG1 murine monoclonal antibody Cu18 and Cu46 recognize two different epitopes of a highly restricted breast carcinoma associated glycoprotein of Mr 225,000 to 250,000 (BCA 225). This TAA is expressed intracytoplasmically and on the membrane of 94% of breast tumors tested and in the T47D human breast carcinoma cell line. BCA 225 is shed into the culture medium by T47D cells and into the sera of breast cancer patients. IgG2a monoclonal antibody L243 (anti HLA Class II-DR) recognizes a monomorphic HLA Class II-DR-α epitope (ATCC M355). Monoclonal antibody CL203.4 [40], which recognizes ICAM-I, was kindly provided by Dr. S. Ferrone, New York Medical College, NY. […]
T47D cells treated with the various compounds were analyzed by flow cytometry using appropriate monoclonal antibody concentrations as described previously. […] Cells were then washed 3× with PBS and analyzed on a FACStar (Beckon Dickinson, Mountain View, Calif.) or a Coulter Epics IV FACS (Coulter, Hialeah, Fla.). Results are expressed as mean fluorescence intensity (MFI) units which were determined as described previously. MFI=(mean channel fluorescence in fluorescence positive antibody-binding cells×% of fluorescence positive antibody-binding cells)−(mean channel fluorescence in unstained cells×% of fluorescence positive cells in the unstained population). […]

[3] = test system: HLA Class I; experiment: Northern blotting, steady-state HLA Class I mRNA in T47D cells; conditions: 72 hr, 500 units/ml IFN-α or IFN-β, 50 units/ml IFN-γ, 0.1 μg/ml TPA or MEZ, densitometry
Experimental: as §1, §2

IFN-α: recombinant human leukocyte interferon produced in Escherichia coli
increase in HLA Class II-DR antigen mRNA levels [1]: 1.1 fold
fold increase in HLA Class II expression ([2]; 500 units/ml IFN-α, IFN-β or IFN-γ as in Table 3): 4 fold
HLA Class II expression (MFI) ([2]; 500 units/ml of IFN-α, experiment of Table 3, control MFI 2,814): 11,660 MFI
increase in HLA class I antigen mRNA levels [3]: 1.9 fold
